Laboratory results reported in US9034884B2, “Heterocyclic-substituted pyrrolopyridines and pyrrolopyrimidines as JAK inhibitors” (Incyte Corporation, priority 2010, dated 2015).

Amino acid sequences for entries named in this document (tags omitted). Residues count along the entry.
UniProt P23458, 849-1154: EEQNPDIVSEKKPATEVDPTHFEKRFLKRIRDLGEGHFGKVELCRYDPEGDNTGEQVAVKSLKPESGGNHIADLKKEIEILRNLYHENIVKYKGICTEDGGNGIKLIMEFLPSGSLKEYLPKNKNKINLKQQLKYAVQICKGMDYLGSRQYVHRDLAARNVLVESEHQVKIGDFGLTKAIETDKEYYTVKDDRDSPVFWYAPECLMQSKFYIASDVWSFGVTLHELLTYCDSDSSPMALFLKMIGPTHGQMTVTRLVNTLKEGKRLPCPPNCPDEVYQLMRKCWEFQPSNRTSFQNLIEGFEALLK

Molecular target: T1, human JAK1 (a.a. 837-1142) catalytic domain (Homo sapiens, UniProt P23458)
T1 construct: human JAK1 (a.a. 837-1142); His tag (N); made in house; host or cells: insect cells (baculovirus)
Assay: In vitro JAK kinase assay (HTRF, phosphorylation of biotinylated peptide), JAK1
Assay type: biochemical
Conditions: Table A; ATP 1 mM
Procedure: Compounds herein were tested for inhibitory activity of JAK targets according to the following in vitro assay described in Park et al., Analytical Biochemistry 1999, 269, 94-104. The catalytic domains of human JAK1 (a.a. 837-1142) and JAK2 (a.a. 828-1132) with an N-terminal His tag were expressed using baculovirus in insect cells and purified. The catalytic activity of JAK1 and JAK2 was assayed by measuring the phosphorylation of a biotinylated peptide. The phosphorylated peptide was detected by homogenous time resolved fluorescence (HTRF). IC50s of compounds were measured for each kinase in the 40 microL reactions that contain the enzyme, ATP and 500 nM peptide in 50 mM Tris (pH 7.8) buffer with 100 mM NaCl, 5 mM DTT, and 0.1 mg/mL (0.01%) BSA. For the 1 mM IC50 measurements, ATP concentration in the reactions was 1 mM. Reactions were carried out at room temperature for 1 hour and then stopped with 20 μL 45 mM EDTA, 300 nM SA-APC, 6 nM Eu-Py20 in assay buffer (Perkin Elmer, Boston, Mass.). Binding to the Europium labeled antibody took place for 40 minutes and HTRF signal was measured on a Fusion plate reader (Perkin Elmer, Boston, Mass.). See Tables A and B for data related to compounds of the invention (at 1 mM). Data is indicated as ranges, wherein “+” is less than 5 nM; “++” is 5 nM to 25 nM; “+++” is greater than 25 nM to 100 nM; and “++++” is greater than 100 nM.

Q: How did the IC50 turn out when CN(C)Cc1cc(F)cc(OC2CCN(CC(CC#N)n3cc(-c4ncnc5[nH]ccc45)cn3)CC2)c1 (single isomer, unassigned) [Example 20 Enantiomer 2, 4-(4-{3-[(Dimethylamino)methyl]-5-fluorophenoxy}piperidin-1-yl)-3-[4-(7H-pyrrolo[2,3-d]pyrimidin-4-yl)-1H-pyrazol-1-yl]butanenitrile (chiral)] was run?
A: Its IC50 is < 5 nM.
